Results taken from patent US6835742B2, “Synergistic effect of amlodipine and atorvastatin on cholesterol crystal formation inhibition and aortic endothelial cell nitric oxide release” (priority 2000, dated 2004).

Assay: Small angle x-ray diffraction of cholesterol-enriched reconstituted membranes (cholesterol domain formation)
Format: physicochemical
Settings: 1.1:1 cholesterol to phospholipid mole ratio, 5° C., 74% relative humidity

## CCOC(=O)C1=C(COCCN)NC(C)=C(C(=O)OC)C1c1ccccc1Cl (stereo not shown) [AML, Amlodipine besylate]
  d-space of surrounding sterol-poor membrane region: 54.4 Å
